scFv variants of Ab-14 (light chain) against a SARS-CoV-2 spike peptide

All variants were tested on one target, the spike HR2 peptide PDVDLGDISGINAS (SARS-CoV-2).

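The starting antibody came from a phage panning campaign against this peptide. The variants were designed computationally from a first round of random CDR variants and then made and measured. Their group label is 14L_GP_Gen (GP: Gaussian process model; Gen: genetic algorithm; a sequence that several methods proposed may carry one label only). The assay is AlphaSeq: two haploid yeast populations carry antibody and antigen on their surface. Binding brings cells together so that they mate, and sequencing counts the barcode pairs among the diploids. Each replicate has its own calibration line, from reference interactions of the BCL2 family. Mating was done six times.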

Ab-14 is the parent antibody, in scFv form: VH, then three GGGGS repeats, then VL. The heavy chain is unchanged in all variants.
VH: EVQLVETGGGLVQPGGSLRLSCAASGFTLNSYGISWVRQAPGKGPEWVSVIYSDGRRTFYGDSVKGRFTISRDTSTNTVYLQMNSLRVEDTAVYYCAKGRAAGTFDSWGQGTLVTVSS
VL: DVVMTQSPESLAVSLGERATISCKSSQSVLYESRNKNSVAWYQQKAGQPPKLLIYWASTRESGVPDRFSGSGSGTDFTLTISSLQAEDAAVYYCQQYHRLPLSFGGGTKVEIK

Changes read parent residue, position, new residue, counted from the first residue of the VL shown.
The read-out is the apparent dissociation constant on a log10 scale (nM): the lower, the stronger.
Replicates are averaged; those with no signal do not enter the mean.

changes | replicates, log10 nM | mean log10 Kd (nM) | signal with controls
S25L+S26W+V29Q+W56N+E61L | 0.25 0.20 0.21 0.25 0.25 0.17 | 0.22 | 1/18 (2.54)
S25L+S26Q+V29W+W56S | 0.20 0.20 -0.03 -0.12 -0.24 0.10 | 0.02 | 1/18 (2.16)
K24A+S25L+W56D | -0.34 -0.42 -0.53 -0.57 -0.61 -0.40 | -0.48 | 1/18 (1.85)
S25L+S28L+V29Q+W56N | -0.02 -0.05 -0.21 -0.29 -0.29 -0.09 | -0.16 | 2/18 (3.57)
S25L+S26P+V29F+W56D | -0.20 -0.36 -0.40 -0.40 -0.46 -0.22 | -0.34 | 0/18
S25L+S26P+W56H | -0.03 -0.11 -0.22 -0.10 -0.09 -0.05 | -0.10 | 2/18 (3.26)
S25V+V29M+L30D+W56N | 0.10 -0.10 -0.12 -0.19 -0.13 -0.02 | -0.08 | 1/18 (1.67)
K24F+S25L+W56N+E61M | -0.03 0.26 0.08 -0.21 0.27 0.49 | 0.14 | 1/18 (2.24)
S25L+V29E+W56G | 0.11 0.02 0.01 -0.01 -0.10 0.07 | 0.01 | 1/18 (4.47)
S25V+S26Q+V29W+W56N+T59Y | 0.35 0.35 0.08 0.34 0.35 0.49 | 0.33 | 2/18 (2.53)
S25V+V29E+S33Q+W56E | 0.18 0.07 -0.05 0.07 0.12 0.18 | 0.10 | 0/18
S25V+V29E+W56N+T59Q+E61L | -0.23 -0.15 -0.19 -0.15 -0.17 0.10 | -0.13 | 0/18
S25L+S26M+V29G+W56N | 0.45 0.65 0.33 0.27 0.68 0.75 | 0.52 | 1/18 (2.80)
S25L+S26D+W56N+E61L | -0.33 -0.42 -0.55 -0.56 -0.39 -0.34 | -0.43 | 1/18 (2.28)
S25L+L30P+W56E+Q96D | 0.47 0.06 0.16 0.23 0.10 0.36 | 0.23 | 2/18 (2.89)
S25L+N35V+W56D+T59Q | 0.27 0.38 0.51 0.37 0.30 0.27 | 0.35 | 2/18 (3.03)
S25L+Q27M+W56N+E61L | 0.28 0.04 -0.10 -0.10 -0.39 0.16 | -0.02 | 0/18
S25L+S26Y+V29Q+W56N+T59Y | 0.15 0.10 -0.03 -0.23 0.08 0.33 | 0.07 | 2/18 (3.00)
S25L+S26Q+Q27F+W56E | 0.11 -0.10 0.29 0.23 0.23 0.40 | 0.19 | 0/18
S25V+V29H+W56D | -0.20 -0.22 -0.36 -0.34 -0.24 -0.11 | -0.25 | 0/18
S25A+W56E | 1.09 0.81 0.14 0.48 0.58 0.68 | 0.63 | 1/18 (0.96)
S25L+S26Q+N35M+W56N+T59Q | 0.14 -0.06 -0.11 0.14 -0.13 0.00 | 0.00 | 0/18
S25L+S26P+V29D+W56E | 0.03 -0.10 -0.30 -0.27 -0.45 0.17 | -0.15 | 0/18
S25L+V29M+S38N+W56N+E61M | -0.26 -0.58 -0.39 -0.59 -0.63 -0.44 | -0.48 | 2/18 (3.97)
S25L+V29W+W56S+T59Q | -0.03 -0.35 -0.44 -0.52 -0.44 -0.23 | -0.34 | 0/18
S25V+Q27G+V29M+W56E | -0.23 -0.42 -0.45 -0.44 -0.45 -0.23 | -0.37 | 2/18 (2.80)
S25L+W56N+S103W | -0.17 -0.21 -0.50 -0.43 -0.50 -0.41 | -0.37 | 0/18
S25F+S26Q+V29W+W56N | -0.41 -0.43 -0.51 -0.63 -0.45 -0.42 | -0.48 | 1/18 (3.17)
S25L+V29W+W56E+T59Q+Q96D | -0.25 -0.33 -0.41 -0.20 -0.27 -0.01 | -0.25 | 0/18
S25L+V29M+L30E+W56N | -0.21 -0.29 -0.31 -0.42 -0.39 -0.24 | -0.31 | 5/18 (3.48)
S25L+S26P+W56S+E61L | -0.12 -0.19 -0.08 -0.06 -0.11 0.05 | -0.09 | 0/18
S25L+S38N+W56E+E61M | 0.01 -0.18 -0.10 -0.24 -0.24 -0.15 | -0.15 | 0/18
S25L+V29F+L30D+W56D | -0.02 0.07 -0.15 0.08 -0.03 -0.02 | -0.01 | 3/18 (2.71)
S25V+S33Q+W56Q | 0.47 0.08 0.07 0.00 0.26 0.25 | 0.19 | 1/18 (2.02)
S25F+L30P+W56D | 0.15 -0.16 -0.16 -0.13 -0.19 0.05 | -0.07 | 0/18
S25F+S26P+W56D | -0.41 -0.34 -0.73 -0.60 -0.68 -0.40 | -0.53 | 0/18
S25M+V29N+W56N | -0.14 -0.30 -0.50 -0.60 -0.28 -0.58 | -0.40 | 1/18 (2.20)
S25V+S38N+W56H | 0.36 0.86 0.13 0.39 0.15 0.20 | 0.35 | 0/18
S25L+S26Y+V29H+W56N+T59Q | -0.36 -0.36 -0.57 -0.54 -0.56 -0.19 | -0.43 | 1/18 (2.20)
S25L+W56N+Q96N | 0.59 0.64 1.87 0.48 1.11 1.57 | 1.04 | 0/18

The first 3 entries again:

changes | replicates, log10 nM | mean log10 Kd (nM) | signal with controls
S25L+S26W+V29Q+W56N+E61L | 0.25 0.20 0.21 0.25 0.25 0.17 | 0.22 | 1/18 (2.54)
S25L+S26Q+V29W+W56S | 0.20 0.20 -0.03 -0.12 -0.24 0.10 | 0.02 | 1/18 (2.16)
K24A+S25L+W56D | -0.34 -0.42 -0.53 -0.57 -0.61 -0.40 | -0.48 | 1/18 (1.85)

The authors' rule: three or more of the six replicates give a measured affinity, fewer mean a poor binder.
Three control strains display no target. For all light chain designs, 4% of the pairings with them gave a signal, with a median of 2.64 and one signal in twenty below 1.59, so weak values seen in few replicates may be background. The control count says in how many pairings with the empty strains this scFv gave a signal, with their mean in brackets.
Of ten entries with the parent sequence, four were seen in most replicates (averages 0.34 to 2.37), three in one and three in none, so single entries are noisy.
Values of this round are not directly comparable with the first-round values of the same sequences.

Values reported by Li et al. 2023, doi:10.1038/s41467-023-39022-2 (FLAb copy).